# Columns and labels:
# By UniProt entry, the sequences of proteins in these tests, tags left out.
# UniProt Q9UQD0, whole entry: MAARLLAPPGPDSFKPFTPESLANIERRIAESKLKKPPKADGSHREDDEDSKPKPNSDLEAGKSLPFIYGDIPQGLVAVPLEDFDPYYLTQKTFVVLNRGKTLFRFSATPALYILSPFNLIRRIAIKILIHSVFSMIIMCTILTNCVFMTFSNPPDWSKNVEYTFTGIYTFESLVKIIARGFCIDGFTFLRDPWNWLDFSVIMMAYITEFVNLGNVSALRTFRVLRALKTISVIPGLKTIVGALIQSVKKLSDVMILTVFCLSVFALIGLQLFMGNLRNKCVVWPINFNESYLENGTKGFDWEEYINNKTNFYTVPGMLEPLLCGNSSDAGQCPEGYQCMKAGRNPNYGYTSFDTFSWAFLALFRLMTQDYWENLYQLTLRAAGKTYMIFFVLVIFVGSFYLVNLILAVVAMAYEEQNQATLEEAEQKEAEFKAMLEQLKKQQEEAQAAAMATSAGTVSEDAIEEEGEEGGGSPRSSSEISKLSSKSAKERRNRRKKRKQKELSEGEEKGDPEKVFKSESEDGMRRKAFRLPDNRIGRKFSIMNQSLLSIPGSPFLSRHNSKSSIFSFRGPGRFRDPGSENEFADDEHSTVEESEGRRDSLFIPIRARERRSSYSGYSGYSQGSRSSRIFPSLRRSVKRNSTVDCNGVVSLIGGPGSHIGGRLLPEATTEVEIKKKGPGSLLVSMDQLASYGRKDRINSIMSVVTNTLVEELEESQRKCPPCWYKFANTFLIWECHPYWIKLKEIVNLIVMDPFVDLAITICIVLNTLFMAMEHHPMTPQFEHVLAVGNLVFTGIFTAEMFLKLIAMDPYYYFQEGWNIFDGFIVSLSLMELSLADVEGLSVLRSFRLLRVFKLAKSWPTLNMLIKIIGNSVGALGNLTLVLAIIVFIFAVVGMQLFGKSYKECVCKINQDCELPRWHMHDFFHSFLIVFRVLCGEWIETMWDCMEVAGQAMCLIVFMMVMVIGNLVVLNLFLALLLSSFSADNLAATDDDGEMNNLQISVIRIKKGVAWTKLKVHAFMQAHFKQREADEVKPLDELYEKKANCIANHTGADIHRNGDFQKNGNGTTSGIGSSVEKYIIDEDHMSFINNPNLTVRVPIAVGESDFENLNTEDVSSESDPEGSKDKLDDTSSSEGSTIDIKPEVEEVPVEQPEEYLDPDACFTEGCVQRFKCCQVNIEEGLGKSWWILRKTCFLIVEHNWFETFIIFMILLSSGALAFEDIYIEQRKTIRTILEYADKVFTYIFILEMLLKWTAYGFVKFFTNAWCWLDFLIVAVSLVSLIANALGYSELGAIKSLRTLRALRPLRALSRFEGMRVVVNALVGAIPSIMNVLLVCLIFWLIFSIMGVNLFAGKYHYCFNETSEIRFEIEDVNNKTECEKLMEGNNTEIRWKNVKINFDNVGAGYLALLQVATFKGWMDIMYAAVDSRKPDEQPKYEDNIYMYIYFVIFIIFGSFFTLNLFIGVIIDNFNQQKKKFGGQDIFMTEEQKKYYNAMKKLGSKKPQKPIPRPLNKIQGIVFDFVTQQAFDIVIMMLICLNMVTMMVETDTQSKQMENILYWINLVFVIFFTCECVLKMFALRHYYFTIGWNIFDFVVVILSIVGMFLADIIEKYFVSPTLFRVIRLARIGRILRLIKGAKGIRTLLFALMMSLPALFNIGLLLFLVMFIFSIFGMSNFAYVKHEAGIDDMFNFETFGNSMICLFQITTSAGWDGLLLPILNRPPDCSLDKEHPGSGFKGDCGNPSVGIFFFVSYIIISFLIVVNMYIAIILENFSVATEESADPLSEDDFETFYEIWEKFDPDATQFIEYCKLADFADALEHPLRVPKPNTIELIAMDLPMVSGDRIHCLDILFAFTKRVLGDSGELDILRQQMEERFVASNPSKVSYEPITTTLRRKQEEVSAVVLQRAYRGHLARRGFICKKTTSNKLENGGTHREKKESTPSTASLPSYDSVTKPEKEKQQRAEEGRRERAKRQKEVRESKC
# VdNav = experiment: Ion channel panel, VdNav; format: cell-based, Varroa destructor; set-up: key: “+” means tested and produced effect; “–“ means tested but no effect; conditions: S12A at 5 μM; Xenopus oocytes, n ≥ 3
# Method: For the expression of NaV channels (hNav1.1, rNaV1.2, rNaV1.3, rNaV1.4, hNaV1.5, hNaV1.6, hNav1.7, and the insect channel BgNaV1) in Xenopus laevis oocytes, the linearized plasmids were transcribed using the T7 or SP6 mMESSAGE-mMACHINE transcription kit (Ambion, Carlsbad, CA, USA). The harvesting of stage V and VI oocytes from an anaesthetized female X. laevis frog was described previously. , Oocytes were injected with 50 nL of cRNA at a concentration of 1 ng/nL using a microinjector (Drummond Scientific, Broomall, PA, USA). The oocytes were incubated in a solution containing 96 mM NaCl, 2 mM KCl, 1.8 mM CaCl2, 2 mM MgCl2, and 5 mM HEPES (pH 7.4), supplemented with 50 mg/L gentamycin sulfate. […] Whole-cell currents from oocytes were recorded 1–4 days after injection. […]
# To assess the concentration–response relationships, data were fitted with the Hill equation: y = 100/[1 + (EC50/[toxin])^ h ], where y is the amplitude of the toxin-induced effect (y = I 30 ms/I peak where I 30 ms is the current value at 30 ms in the presence of toxin and I peak is the peak current amplitude in control conditions), EC50 is the toxin concentration at half-maximal efficacy, [toxin] is the toxin concentration, and h is the Hill coefficient. […] ASIC1a currents were measured in ND96 solutions at a pH of 7.4 and 4.5, at a holding potential of −70 mV during 400 s, and the data were filtered at 20 Hz. […]
# hNaV1.6 = biological target: T1, hNaV1.6 (Homo sapiens, UniProt Q9UQD0); experiment: Two-electrode voltage clamp, Nav1.6 in Xenopus laevis oocytes; format: cell-based; set-up: key to effect on Nav1.6: “+” means tested and produced effect; “–“ means tested but no effect; conditions: S12A at 5 μM; Xenopus oocytes, n ≥ 3
# T1 construct: expressed in transfected cells; host or cells: Xenopus laevis oocytes (cRNA injection)
compound,measurement,setting,value
CC[C@H](C)[C@@H]1NC(=O)[C@@H](NC(=O)CN)CSSC[C@@H]2NC(=O)[C@@H]3CSSC[C@@H](C(=O)N[C@@H](CC(N)=O)C(=O)N4C[C@H](O)C[C@H]4C(=O)N4C[C@H](O)C[C@H]4C(=O)N[C@@H](CC(N)=O)C(=O)N[C@@H](CCC(N)=O)C(=O)O)NC(=O)[C@H](CCCCN)NC(=O)[C@H](Cc4ccccc4)NC(=O)[C@H](CC(N)=O)NC(=O)[C@H](Cc4c[nH]c5ccccc45)NC(=O)CNC(=O)[C@H](CSSC[C@H](NC(=O)[C@H](Cc4ccccc4)NC(=O)[C@H](CO)NC(=O)CNC(=O)[C@H]([C@@H](C)O)NC(=O)[C@H](C)NC1=O)C(=O)N[C@@H]([C@@H](C)O)C(=O)N[C@@H](CC(C)C)C(=O)N[C@@H](C)C(=O)N[C@@H](CCCCN)C(=O)NCC(=O)N3)NC(=O)[C@H](CC(N)=O)NC(=O)[C@H](CCCCN)NC(=O)[C@H]([C@@H](C)O)NC2=O [Peptide S12A],effect on VdNav,VdNav,+
same,effect on Nav1.6,hNaV1.6,–
